ChEMBL document CHEMBL5614382, “Discovery of a new 1-(phenylsulfonyl)-1H-indole derivative targeting the EphA2 receptor with antiproliferative activity on U251 glioblastoma cell line” (Eur J Med Chem, 2024)
pIC50: −log10 of the molar value.

Target: T1, Ephrin type-B receptor 2 (Mus musculus, UniProt P54763)
T1 sequence (P54763 whole entry): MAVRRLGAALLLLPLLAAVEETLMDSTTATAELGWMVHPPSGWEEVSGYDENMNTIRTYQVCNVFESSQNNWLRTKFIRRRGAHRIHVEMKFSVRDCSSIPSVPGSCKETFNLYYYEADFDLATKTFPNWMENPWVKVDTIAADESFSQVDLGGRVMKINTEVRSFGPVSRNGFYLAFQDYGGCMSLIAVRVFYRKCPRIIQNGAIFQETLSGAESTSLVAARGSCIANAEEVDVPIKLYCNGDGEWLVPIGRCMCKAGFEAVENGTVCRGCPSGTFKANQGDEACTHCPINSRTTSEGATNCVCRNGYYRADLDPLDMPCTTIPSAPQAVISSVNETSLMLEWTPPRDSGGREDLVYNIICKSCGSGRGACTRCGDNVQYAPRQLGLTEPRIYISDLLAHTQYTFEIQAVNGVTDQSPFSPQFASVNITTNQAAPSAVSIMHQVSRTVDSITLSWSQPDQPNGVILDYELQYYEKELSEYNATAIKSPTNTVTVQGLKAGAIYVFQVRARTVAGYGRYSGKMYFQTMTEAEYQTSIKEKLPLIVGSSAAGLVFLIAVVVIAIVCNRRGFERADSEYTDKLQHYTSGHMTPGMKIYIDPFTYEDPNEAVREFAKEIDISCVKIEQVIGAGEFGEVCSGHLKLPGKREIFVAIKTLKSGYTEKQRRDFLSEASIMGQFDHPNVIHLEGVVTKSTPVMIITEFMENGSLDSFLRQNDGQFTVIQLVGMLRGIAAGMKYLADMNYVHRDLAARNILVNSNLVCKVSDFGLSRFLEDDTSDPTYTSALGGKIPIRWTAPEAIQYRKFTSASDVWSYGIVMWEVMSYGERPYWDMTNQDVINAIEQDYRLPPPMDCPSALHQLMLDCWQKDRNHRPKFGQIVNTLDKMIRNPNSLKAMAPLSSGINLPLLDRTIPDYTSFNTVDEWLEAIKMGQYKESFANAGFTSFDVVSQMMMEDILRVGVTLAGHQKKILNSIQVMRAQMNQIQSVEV
Assay: Displacement of biotinylated Fc-tagged ephrin-B1 from recombinant N/C-terminal 6-his tagged mouse EphB2 (Val27 to Lys548 residues) preincubated for 1 hr followed by ephrin-B1-Fc addition and measured after 4 to 5 hrs by ELISA assay

`C[C@H](CCC(=O)N[C@H](CC(=O)O)Cc1c[nH]c2ccccc12)[C@H]1CC[C@H]2[C@@H]3CC=C4C[C@@H](O)CC[C@]4(C)[C@H]3CC[C@]12C` was tested, and the pIC50 was 4.80.
